# System: MAP-2c protein in SK-MEL-19 cells
# Experiment: Western blot (mAb HM-2) of MAP-2 protein in SK-MEL-19 cells
# Details: 5 day HMBA treatment
smiles,measurement,value
"CC(=O)NCCCCCCNC(C)=O [HMBA, hexamethylene bisacetamide]",amount of MAP-2c protein,an increase in the amount of MAP-2c protein was apparent
